In experiment [1] the target is T1, TNF (Homo sapiens, UniProt P01375). Kind of experiment: competition.
Experiment [2] concerns the target T1, TNF.

Amino acid sequences for entries named in this document (tags omitted). Residues count along the entry.
UniProt P01375, 77-233: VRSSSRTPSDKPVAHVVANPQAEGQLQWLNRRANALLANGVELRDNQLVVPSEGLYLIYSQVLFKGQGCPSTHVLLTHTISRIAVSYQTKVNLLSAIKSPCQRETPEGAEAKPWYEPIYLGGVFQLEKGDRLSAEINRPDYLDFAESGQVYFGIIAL

Like-named read-outs stand apart in the source and are kept apart here.

B1: infliximab (antibody, V domains shown)
VH: EVKLEESGGGLVQPGGSMKLSCVASGFIFSNHWMNWVRQSPEKGLEWVAEIRSKSINSATHYAESVKGRFTISRDDSKSAVYLQMTDLRTEDTGVYYCSRNYYGSTYDYWGQGTTLTVSS
VL: DILLTQSPAILSVSPGERVSFSCRASQFVGSSIHWYQQRTNGSPRLLIKYASESMSGIPSRFSGSGSGTDFTLSINTVESEDIADYYCQQSHSWPFTFGSGTNLEVKR
The term Kd denotes the concentration at which binding is half-saturated. Low readings indicate higher affinity, high ones lower affinity. On to B1, for which the Kd in the experiment with TNF [1] was 0.28 nM; with TNF [2] it was 0.4 nM.

Source of the values: PMC3894572 (2013).
